Consider one substance from patent US8263065B2, “Tumor suppression using human placental perfusate and human placenta-derived intermediate natural killer cells” (Anthrogenesis Corporation, priority 2007, dated 2012).

In the data set the test system is KG-1a cells. The data set can be described thus: CFSE cytotoxicity of total nucleated cells from HPP or UCB. Format: cell-based, Human. The following applies: 100 U/mL or 1000 U/mL IL-2 for 24 hours before KG-1a; ratio of 6.25 and above. As to the method: Total nucleated cells from HPP or umbilical cord blood (UCB) were mixed with KG-1a cells at ratios of 1:1, 5:1, 10:1, 20:1 or 100:1. After 24 h or 48 h incubation, cells were harvested and examined for the presence of CFSE by FACS analysis (BD FACSCanto, BD Bioscience). Tumor cells cultured alone were used as controls. Cytotoxicity was defined as: (1−CFSESample/CFSE^Control)*100%.
In a separate experiment, the cytotoxicity of total nucleated cells from HPP was compared to that of total nucleated cells from umbilical cord blood. Matched TNC-HPP or UCB was mixed with KG-1a cells at ratios of 0.78:1, 1.56:1, 3.12:1, 6.25:1, 12.5:1, 25:1, 50:1 or 100:1.
In another experiment, 24 hours prior to incubation with KG-1a cells, TNC—HPP was stimulated with 100 U/mL, or 1000 U/mL of IL-2, while HPP cultured with RPMI medium was used as control.

For “IL-2: interleukin-2 (IL-2), cytokine used to stimulate perfusate cells”, the “effect of IL-2 stimulation on cytotoxicity of TNC-HPP” value was “appears to increase the cytotoxicity”.
